Numbers after ± are expanded uncertainties.

The nature of the data set: molar enthalpy of vaporization or sublimation. To be noted: 298.15 K; Crystal; DSC.

In the case of `c1ccc2cccc-2cc1` [bicyclo[5.3.0]deca-2,4,6,8,10-pentaene], the molar enthalpy is 17.5 ± 0.55 kcal/mol.

These data come from the NIST ThermoML archive (doi:10.1016/j.tca.2014.05.033).
